Data reported in patent publication US6288125A, “Treatment of hiatial hernia” (Knoll Pharmaceuticals Company, priority 2000, dated 2001).

By UniProt entry, the sequences of proteins in these tests, tags left out.
UniProt P31652, whole entry: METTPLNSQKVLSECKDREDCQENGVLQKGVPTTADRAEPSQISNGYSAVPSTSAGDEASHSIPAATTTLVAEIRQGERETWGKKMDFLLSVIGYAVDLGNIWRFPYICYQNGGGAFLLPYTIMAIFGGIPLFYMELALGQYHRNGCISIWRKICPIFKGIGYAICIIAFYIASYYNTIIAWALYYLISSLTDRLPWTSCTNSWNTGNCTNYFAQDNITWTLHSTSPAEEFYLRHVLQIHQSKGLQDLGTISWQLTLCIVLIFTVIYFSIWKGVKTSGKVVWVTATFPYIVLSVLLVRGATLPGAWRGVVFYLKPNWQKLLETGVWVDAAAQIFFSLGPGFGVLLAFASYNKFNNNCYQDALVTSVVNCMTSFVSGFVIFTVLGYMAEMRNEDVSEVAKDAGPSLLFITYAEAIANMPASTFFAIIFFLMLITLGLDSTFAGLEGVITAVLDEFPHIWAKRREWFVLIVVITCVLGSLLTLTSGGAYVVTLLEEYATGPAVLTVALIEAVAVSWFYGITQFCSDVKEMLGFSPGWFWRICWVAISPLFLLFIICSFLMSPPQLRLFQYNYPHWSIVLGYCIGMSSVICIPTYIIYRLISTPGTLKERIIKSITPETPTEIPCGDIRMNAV

Target: [^3 H]5-HT reuptake (Rattus norvegicus, UniProt P31652)
Details: read-out: Ki (nM) [^3 H]5-HT; in vitro monoamine reuptake inhibition; rat brain tissue; means of >3 separate determinations

Compound	Ki
CNC(CC(C)C)C1(c2ccc(Cl)cc2)CCC1 (centres unmarked) [Example 1, N-{1-[1-(4-chlorophenyl)cyclobutyl]-3-methylbutyl}-N-methylamine]	18 nM
CC(C)CC(N)C1(c2ccc(Cl)cc2)CCC1 (centres unmarked) [Example 2, 1-[1-(4-chlorophenyl)cyclobutyl]-3-methylbutylamine]	26 nM
